Test results: patent US20030032580A1, “Use of agonists or antagonists of the 5-HT7 receptor to treat disorders of the bladder” (Synaptic Pharmaceutical Corporation, priority 1999, published 2003)

The chains behind the UniProt entries cited, without tags or fusion partners.
UniProt P30994, whole entry: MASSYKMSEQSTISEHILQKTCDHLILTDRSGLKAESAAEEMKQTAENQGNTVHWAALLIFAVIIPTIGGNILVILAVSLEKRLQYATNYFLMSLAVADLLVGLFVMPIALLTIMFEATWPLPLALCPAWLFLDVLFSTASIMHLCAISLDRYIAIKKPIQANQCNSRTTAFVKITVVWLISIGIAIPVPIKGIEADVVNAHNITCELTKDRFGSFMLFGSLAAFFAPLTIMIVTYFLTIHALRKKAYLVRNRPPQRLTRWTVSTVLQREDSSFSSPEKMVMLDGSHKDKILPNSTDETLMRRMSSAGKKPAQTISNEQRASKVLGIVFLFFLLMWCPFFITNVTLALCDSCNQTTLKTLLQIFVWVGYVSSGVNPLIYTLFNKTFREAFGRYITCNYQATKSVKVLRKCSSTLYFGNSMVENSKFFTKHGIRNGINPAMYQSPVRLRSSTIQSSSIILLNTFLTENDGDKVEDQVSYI
UniProt P32305, whole entry: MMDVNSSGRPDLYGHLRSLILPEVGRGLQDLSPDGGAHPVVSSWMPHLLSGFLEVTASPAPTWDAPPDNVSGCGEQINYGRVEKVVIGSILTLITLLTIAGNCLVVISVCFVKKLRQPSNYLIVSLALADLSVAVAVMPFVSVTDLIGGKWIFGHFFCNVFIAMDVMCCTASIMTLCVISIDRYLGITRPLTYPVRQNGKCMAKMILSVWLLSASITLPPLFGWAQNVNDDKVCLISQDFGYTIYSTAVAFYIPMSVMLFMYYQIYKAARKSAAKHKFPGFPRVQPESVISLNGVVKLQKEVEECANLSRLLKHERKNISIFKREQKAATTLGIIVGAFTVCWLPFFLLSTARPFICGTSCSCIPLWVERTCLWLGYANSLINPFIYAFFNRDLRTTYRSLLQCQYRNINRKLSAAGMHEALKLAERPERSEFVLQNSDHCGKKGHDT

What was measured:
[1] = target: 5-HT2B receptor (second phase of the concentration-effect curve to 5-CT in the rat bladder) (Rattus norvegicus, UniProt P30994); assay: Electrically stimulated rat bladder strips: second (low potency) phase of the concentration-effect curve to 5-CT
[2] = target: cloned rat 5-HT2B receptor (Rattus norvegicus, UniProt P30994); details: cited from earlier work; for pKB, 5-HT2B: Wainscott et al., 1993
[3] = target: cloned rat 5-HT7 receptor (Rattus norvegicus, UniProt P32305); details: references 2 and 3; cited from earlier work
[4] = target: 5-HT7 receptor (first phase of the concentration-effect curve to 5-CT in the rat bladder) (Rattus norvegicus, UniProt P32305); assay: Electrically stimulated rat bladder strips: first (high potency) phase of the concentration-effect curve to 5-CT
[5] = system: 5-HT7; details: Hoyer et al., 1994; cited from earlier work

SMILES | Kb [1] | pKB, 5-HT2B [2] | pK1 ([2]; cloned rat 5-HT2B receptor, reference 1 (Wainscott et al., 1993)) | pK1 [3] | first-phase affinity greater than that for the 5-HT7, subtype ([4]; bladder pKB versus published value (Hoyer et al., 1994)) | first-phase affinity greater than that for 5-HT1A, 5-HT1B, 5-HT1D, 5-HT1E, 5-HT1F and 5-HT5A subtypes ([4]; bladder pKB versus published values) | pKB ([4]; inhibition of the first phase of the concentration-effect curve to 5-CT in the rat bladder, antagonists tested in the presence of 0.1 μM 1-NP) | pKB, 5-HT7, subtype [5]
CN1C[C@@H](NS(=O)(=O)N(C)C)C[C@@H]2c3cccc4c3c(cn4C)C[C@H]21 [mesulergine] | 39.8 nM | 7.4-7.8 | 7.4-7.8 | – | – | – | – | –
O=C(CCCN1CCC2(CC1)C(=O)NCN2c1ccccc1)c1ccc(F)cc1 [spiperone] | – | 5.5 | – | – | – | – | – | –
CSc1ccc2c(c1)C(N1CCN(C)CC1)Cc1ccccc1S2 (stereo not drawn) [methiothepin] | – | – | – | 9.4 | 40 fold | at least 100 fold | 9.4 | 7.8
